Assay results as given in ChEMBL document CHEMBL3259633, “Selectively promiscuous opioid ligands: discovery of high affinity/low efficacy opioid ligands with substantial nociceptin opioid peptide receptor affinity” (J Med Chem, 2014).

Protein sequences, listed by entry. Tags and fused reporters are not part of them.
UniProt P97266, whole entry: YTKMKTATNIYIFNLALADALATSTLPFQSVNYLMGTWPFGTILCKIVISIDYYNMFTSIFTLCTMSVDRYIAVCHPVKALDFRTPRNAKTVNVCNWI
UniProt P41146, whole entry: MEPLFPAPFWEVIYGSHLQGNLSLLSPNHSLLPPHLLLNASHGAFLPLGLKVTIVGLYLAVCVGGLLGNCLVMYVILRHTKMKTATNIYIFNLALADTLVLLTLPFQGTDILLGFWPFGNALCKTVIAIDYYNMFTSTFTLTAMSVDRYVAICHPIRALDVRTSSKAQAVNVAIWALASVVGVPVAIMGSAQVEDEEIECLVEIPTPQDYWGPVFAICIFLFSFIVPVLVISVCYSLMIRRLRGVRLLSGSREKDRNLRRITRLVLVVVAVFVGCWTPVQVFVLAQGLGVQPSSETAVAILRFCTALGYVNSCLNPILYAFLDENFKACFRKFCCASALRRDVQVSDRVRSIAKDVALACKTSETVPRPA

Columns and labels:
[1] = biological target: Mu-type opioid receptor (Cavia porcellus, UniProt P97266); assay: Displacement of [3H]-DAMGO from mu opioid receptor in Hartley guinea pig brain membranes after 60 mins by beta-plate liquid scintillation counting analysis; conditions: strain Hartley
[2] = biological target: T1, Nociceptin receptor (Homo sapiens, UniProt P41146); assay: Displacement of [3H]-N/OFQ from human nociceptin opioid receptor transfected in CHO cells after 60 mins by beta-plate liquid scintillation counting analysis
[3] = biological target: T1, Nociceptin receptor; assay: Displacement of [3H]-N/OFQ from recombinant nociceptin opioid receptor (unknown origin) expressed in HEK cells; conditions: hek293

**Q.** For `CO[C@]12C=C[C@@]3(C[C@@H]1[C@@H](O)c1ccccc1)[C@H]1Cc4ccc(O)c5c4[C@@]3(CCN1CC1CC1)[C@H]2O5`, which Ki [1] is on record?
**A.** 0.8 nM

**Q.** For `CC[C@@](O)(c1ccccc1)[C@H]1C[C@@]23C=C[C@]1(OC)[C@@H]1Oc4c(O)ccc5c4[C@@]12CCN(CC1CC1)[C@@H]3C5`, which Ki [2] is on record?
**A.** 197 nM

**Q.** How did the Ki [3] turn out when `CO[C@]12CC[C@@]3(C[C@@H]1[C@@](C)(O)c1ccncc1)[C@H]1Cc4ccc(O)c5c4[C@@]3(CCN1CC1CC1)[C@H]2O5` was run?
**A.** 4630 nM
